According to PubChem BioAssay (NCATS):
This is a selection; strong and weak results do not stand in their true shares. Records with an inconclusive call do not appear. Active and inactive are the calls of the source. Unless noted, calls come from the whole dose curve; as a rule, active = well fitted curve in the direction sought with a large enough effect; inconclusive = small, poorly fitted or top-dose-only effect, or another doubt; inactive = no such curve, though single readings can be large; an effect the other way counts as inactive or inconclusive.

Experiments:
[1] = Stat Signaling Pathway (AID 446; active = well fitted curve in either direction with a large enough effect, not every such curve was filed as active;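 note: ME-180 cervical cancer cells given 40 pM IL-6 alongside compound; SIE-controlled beta-lactamase reporter measured as 460/530 nm FRET emission ratio; % is set by controls: 0 for no effect and ±100 for the full control effect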); conditions: ME-180 (cervical carcinoma) SIE beta-lactamase reporter, IL-6 stimulated, 5 h; at 7.69 µM (top of the series) unless noted
In short: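 Overnight-plated ME-180 cells bearing a STAT Inducible Element beta-lactamase reporter; 5 h co-exposure to compound and 40 pM IL-6; values normalized to 300 pM IL-6 and 125 nM JAK inhibitor controls.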

[2] = molecular target: Mitogen-activated protein kinase 10 (Mus musculus) (UniProt Q61831); assay: JNK3 AlphaScreen Assay (AID 530; active = well fitted curve in either direction with a large enough effect, not every such curve was filed as active;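 note: kinase came from lysate of stimulated human HepG2 cells; signal reports phosphorylation of biotinylated GST-cJun 1-79 at Ser73 with 10 µM ATP; % is set by controls: 0 for no effect and ±100 for the full control effect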); conditions: JNK3 lysate, c-Jun phosphorylation; at 11.4 µM (top of the series) unless noted
In short: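 Kinase buffer: 20 mM Tris-HCl pH 7.6, 10 mM MgCl2, 1 mM DTT, 0.1 mM Na3VO4, 0.01% Tween-20; ATP 10 uM. Substrate biotin-GST-cJun(1-79), enzyme from activated HepG2 lysates. Detection by Ser73 phospho-antibody AlphaScreen.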

[3] = molecular target: 3',5'-cyclic-AMP phosphodiesterase 4B (Homo sapiens) (UniProt Q07343); assay: qHTS Assay for Inhibitors of PDE-IV (AID 607; active = well fitted activation curve with a large enough effect in the main read-out, with a control signal flat, not every such curve was filed as active; note: % of control where 0% means no effect); conditions: HEK293 ACTOne CNG channel cells, membrane potential fluorescence; at 22.9 µM (top of the series)
In short: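 Live HEK293 cells with a modified cyclic nucleotide-gated (CNG) channel report intracellular cAMP via membrane-potential dye fluorescence (ex 535/em 590 nm). Endogenous PDE-IV was targeted. Compounds were tested at up to 22.9 uM final; RO 20-1724 100 uM served as control.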

[4] = molecular target: Guanine nucleotide-binding protein G(i) subunit alpha-1 (Homo sapiens) (UniProt P63096); assay: qHTS Assay for Inhibitors of RGS12 GoLoco Motif Activity (Green Fluorophore) (AID 879); conditions: Galphai1/FITC-RGS12 GoLoco peptide, fluorescence polarization; at 57.1 µM (top of the series);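 note: 0% = labeled peptide with Gαi1 and full inhibition = labeled peptide alone without protein; negative values mean loss of peptide binding seen as reduced polarization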
In short: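 A drop in FITC polarization marked displacement of the FITC-tagged RGS12 GoLoco peptide (10 nM) from Gαi1 (50 nM). Compounds were incubated 10 min at room temperature in Tris pH 7.5 buffer containing 150 mM NaCl, 0.1 mM GDP and 0.05% NP40; unlabeled peptide titration served as control.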

[5] = qHTS Assay for Identification of Small Molecule Agonists for Thrombopoietin (TPO) Signaling Pathway (AID 917); conditions: TPO signaling pathway reporter cells, agonist qHTS, stimulated with TPO at its EC50; at 38.5 µM (top of the series); note: % is set by controls: 0 for no effect and ±100 for the full control effect
[6] = molecular target: Muscarinic acetylcholine receptor M1 (Rattus norvegicus) (UniProt P08482); assay: qHTS Assay for Antagonists of Acetylcholine Muscarinic M1 Receptor: Kinetic Measurement of Intracellular Calcium Response (AID 943); conditions: M1-expressing cells, kinetic intracellular calcium fluorescence; note: potency is the fitted concentration of half-maximal effect; nearly all actives have a fitted effect of over 75% in size
[7] = molecular target: Muscarinic acetylcholine receptor M1 (Rattus norvegicus) (UniProt P08482); assay: qHTS Assay for Antagonists of Acetylcholine Muscarinic M1 Receptor: Measurement of IP-One Response (AID 944); note: potency is the fitted concentration of half-maximal effect; nearly all actives have a fitted effect of over 75% in size
[8] = molecular target: Pyruvate kinase PKM (Homo sapiens) (UniProt P14618); assay: qHTS Assay for Activators of Human Muscle Pyruvate Kinase (AID 954; active = well fitted curve in the direction sought with a large enough effect, not every such curve was filed as active;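 note: 0% = uninhibited enzyme and -100% = no enzyme or full thiadiazolimine inhibition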); conditions: purified human PKM1 enzyme activity; at 57.5 µM (top of the series)
In short: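 Screening used highly purified human pyruvate kinase M2 under submaximal activity, with PEP at its Km and ADP below Km. After an hour at room temperature, ATP was read by luciferase luminescence.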

[9] = molecular target: Alpha-galactosidase A (Homo sapiens) (UniProt P06280); assay: Counterscreen for Glucocerebrosidase Inhibitors: qHTS Assay for Human alpha-Galactosidase at pH 4.5 (AID 992); conditions: purified enzyme, fluorogenic substrate; at 76.9 µM (top of the series); note: 0% is about no effect
In short: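 Each compound is preincubated briefly with 2 nM enzyme before substrate addition (80 uM); plates then sit 20 min at ambient temperature, are quenched with 1M NaOH/1M glycine, and read fluorometrically.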

[10] = molecular target: alpha-glucosidase (Oryza sativa, rice) (UniProt Q653V4); assay: Counterscreen for Glucocerebrosidase Inhibitors: qHTS Assay for Rice alpha-Glucosidase at pH 5.0 (AID 997); conditions: rice alpha-glucosidase enzyme activity; at 76.9 µM (top of the series);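 note: 0% = full activity with enzyme and -100% = basal without enzyme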
In short: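 Endpoint fluorogenic assay at pH 5.0: compounds (0.7 nM to 77 uM) titrated against 4 nM rice enzyme and 400 uM 4-MU-alpha-glucoside for 20 min at room temperature; NaOH/glycine stop, read ex 365/em 440 nm, Hill-fitted AC50.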

[11] = molecular target: DNA repair nuclease/redox regulator APEX1 (Homo sapiens) (UniProt P27695); assay: qHTS Validation Assay for Inhibitors of the Human Apurinic/apyrimidinic Endonuclease 1 (APE1) (AID 1705;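 note: TAMRA fluorescence gain over two minutes as APE1 cuts a quenched THF abasic duplex; % is set by controls: 0 for no effect and ±100 for the full control effect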); conditions: purified APE1 endonuclease activity, fluorescence, titration; at 57.1 µM (top of the series)
In short: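 Activity read as rising fluorescence (598 nm emission, 525 nm excitation) from incision of a TAMRA/BHQ-2 duplex carrying a THF abasic site (50 nM). Compound and enzyme sat 15 min at RT before substrate start; signal change between first and third 60-s reads.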

[12] = Counterscreen for APE1 Inhibitors: Fluorescent Dye Displacement Validation Assay (AID 1707); conditions: fluorescent dye displacement from DNA; at 57.1 µM (top of the series);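 note: plate controls were ThO with dsDNA and no compound for no effect and ThO without dsDNA for full effect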
In short: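 Loss of Thiazole Orange fluorescence marks promiscuous DNA binders. The dye (250 nM) is mixed with 50 nM abasic-site dsDNA in pH7.5 Tris buffer containing MgCl2, then compounds are added and emission is read once.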

[13] = qHTS Assay for Modulators of Human Peripheral Myelin Protein 22 (PMP22) Expression/Activity (AID 1967; active = well fitted curve in the direction sought with a large enough effect in the signal ratio; the % refers to the signal ratio;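 note: 0% = untreated cells and 100% end not stated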); conditions: Cell-based PMP22 reporter, dual-color luciferase ratio, 0% = compound-free control cells, mouse Pmp22 promoter in mouse Schwann cells; at 115 µM (top of the series)
In short: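 Readout is the corrected green/red luminescence ratio after 24 h compound exposure, normalised to untreated cells (0%). Engineered MSC80 mouse Schwann cells express green luciferase from the mouse Pmp22 promoter and red luciferase from EF-alpha as internal control.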

[14] = molecular target: Ferritin light chain (Equus caballus) (UniProt P02791); assay: qHTS Validation Assay for Identification of Novel General Anesthetics (AID 2323); conditions: horse apoferritin, anesthetic-site fluorescent probe displacement; at 76.9 µM (top of the series); note: % is set by controls: 0 for no effect and ±100 for the full control effect
In short: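 Competitive displacement of the profluorescent anesthetic 1-AMA (50% saturated, PBS) from 10 uM apoferritin, 10 min, room temperature. Activity is normalized 380/535 nm fluorescence; concentration-response fitted with a four-parameter Hill equation.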

[15] = molecular target: ATP-dependent DNA helicase Q1 (Homo sapiens) (UniProt P46063); assay: qHTS Validation Assay for Inhibitors of RecQ-Like Dna Helicase 1 (RECQ1) (AID 2353); conditions: recombinant RECQ1 helicase DNA unwinding assay; at 25.6 µM (top of the series);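 note: plate controls were DMSO vehicle for no effect and enzyme-free control for full effect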
In short: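 RECQ1T1 50 nM; forked duplex (20 bp + 30-nt ss tails) 200 nM, ATP 2 mM final; pH 8.0, 2 mM MgCl2, 2.5 ug/ml poly(dI-dC); 15 min compound preincubation; discontinuous kinetic read over 2 h at RT.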

[16] = molecular target: RecQ-like DNA helicase BLM (Homo sapiens) (UniProt P54132); assay: qHTS Validation Assay for Inhibitors of Bloom's syndrome helicase (BLM) (AID 2364); conditions: BLM helicase DNA unwinding, fluorescence, in vitro; at 57.1 µM (top of the series);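 note: plate controls were DMSO vehicle for no effect and enzyme-free control for full effect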

CN(CCCl)Cc1cc(Cl)c(NC2=NCCN2)c(Cl)c1
inactive: activity, negative = inhibition [1] -2.9% [at 38 µM] | activity change, negative = inhibition [2] -26.7% [at 57.1 µM] | activation (PDE inhibition) [3] -2.65% | activity, negative = inhibition [4] -19.2% | activity, positive = activation [5] -17.3% | activity change, negative = inhibition [8] 4.65% | activity change, negative = inhibition [9] -3.54% | activity change, negative = inhibition [10] -2.28% | activity change, negative = inhibition [11] 22.4% | activity change, negative = inhibition [12] 1.91% | activity change (ratio) [13] 19.9% | activity change, negative = inhibition [14] -9.44% | activity change, negative = inhibition [15] -1.27% | activity change, negative = inhibition [16] 1.77%
active: Potency [6] 11.2 µM | Potency [7] 14.1 µM
